Legend:
[1] = tested on: LNCaP cells; experiment: Cell viability / proliferation assay (Prestoblue), LNCaP; assay type: cell-based; details: Homo sapiens, read-out: IC50 cell proliferation / growth
Procedure: (§1) After 3 days of treatment, cell density was measured using the Prestoblue™ assay (Thermo Fisher Scientific™).
(§2) LNCaP, PC3 and MR49F human PCa cells were serum-starved in RPMI 1640 media (Invitrogen™) supplemented with 5% charcoal-stripped serum (CSS) (RPMI 1640 medium with 5% CSS) for 5 days prior to transfection.

Amino acid sequences for entries named in this document (tags omitted). Residues count along the entry.
UniProt P15207, 651-882 limits assumed: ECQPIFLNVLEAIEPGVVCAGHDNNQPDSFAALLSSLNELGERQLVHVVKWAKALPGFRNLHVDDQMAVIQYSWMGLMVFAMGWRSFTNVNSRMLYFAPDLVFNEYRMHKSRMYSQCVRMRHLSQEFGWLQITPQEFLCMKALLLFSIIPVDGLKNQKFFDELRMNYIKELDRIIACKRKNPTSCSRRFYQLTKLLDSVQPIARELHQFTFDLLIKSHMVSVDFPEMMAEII

[2] = target: androgen binding site (ABS) of recombinant wild type LBD (Rattus norvegicus, UniProt P15207)
[3] = tested on: PC3 (AR negative) cells; experiment: Cell viability / proliferation assay (Prestoblue), PC3; assay type: cell-based; details: Homo sapiens
Procedure: as §1, §2

Q: What does the source list for `CC(C)NC(=O)c1cccc2nc(-c3c[nH]c4c(F)c(F)c(F)cc34)ccc12` [Compound 13789, N-isopropyl-2-(5,6,7-trifluoro-1H-indol-3-yl)quinoline-5-carboxamide]?
A: IC50 [1]: 320 nM; % Disp. @ 10 UM (DHT displacement from the ABS site) [2]: 11 ± 3.1%; IC50 [3]: 380 nM

Reference: patent publication US20240150313A1, “TRI-SUBSTITUTED INDOLE BINDING FUNCTION 3 (BF3) COMPOUNDS AND METHODS FOR THEIR USE” (The University of British Columbia, priority 2021, published 2024)
